Source: patent US20240102994A1, “Method to Evaluate the Capability of Compounds on the Trapping of Proteins” (Eisbach Bio GmbH, priority 2020, published 2024)

By UniProt entry, the sequences of proteins in these tests, tags left out.
UniProt P09874, whole entry: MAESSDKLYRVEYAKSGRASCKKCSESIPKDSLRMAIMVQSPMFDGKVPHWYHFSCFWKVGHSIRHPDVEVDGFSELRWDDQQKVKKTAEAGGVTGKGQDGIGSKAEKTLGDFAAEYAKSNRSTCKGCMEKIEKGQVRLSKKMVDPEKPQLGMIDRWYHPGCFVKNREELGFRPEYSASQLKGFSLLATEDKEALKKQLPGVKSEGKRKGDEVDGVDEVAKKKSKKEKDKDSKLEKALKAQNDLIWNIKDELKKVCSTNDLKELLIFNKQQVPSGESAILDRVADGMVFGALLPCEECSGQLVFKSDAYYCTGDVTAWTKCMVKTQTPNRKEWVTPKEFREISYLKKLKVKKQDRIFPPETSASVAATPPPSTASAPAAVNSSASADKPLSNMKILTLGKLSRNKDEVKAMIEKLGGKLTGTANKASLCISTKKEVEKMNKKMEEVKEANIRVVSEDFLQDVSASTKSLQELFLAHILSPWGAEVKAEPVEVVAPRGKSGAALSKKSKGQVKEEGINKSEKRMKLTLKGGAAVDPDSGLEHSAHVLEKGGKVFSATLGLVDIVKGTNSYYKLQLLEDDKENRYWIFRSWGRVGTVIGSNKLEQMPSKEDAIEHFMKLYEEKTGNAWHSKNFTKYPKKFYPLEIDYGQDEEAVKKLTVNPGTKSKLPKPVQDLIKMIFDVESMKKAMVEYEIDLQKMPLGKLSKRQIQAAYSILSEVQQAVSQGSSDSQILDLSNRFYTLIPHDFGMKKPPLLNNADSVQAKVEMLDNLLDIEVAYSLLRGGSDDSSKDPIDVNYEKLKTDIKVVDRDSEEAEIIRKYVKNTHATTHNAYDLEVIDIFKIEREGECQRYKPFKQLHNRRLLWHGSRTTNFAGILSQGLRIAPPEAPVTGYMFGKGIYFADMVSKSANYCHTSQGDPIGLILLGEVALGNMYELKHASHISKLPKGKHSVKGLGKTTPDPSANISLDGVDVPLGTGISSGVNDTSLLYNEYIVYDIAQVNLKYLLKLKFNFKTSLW

Molecular target: T1, PARP1-GFP (Homo sapiens, UniProt P09874)
T1 construct: expressed in transfected cells; host or cells: U2OS
Assay: Live-cell protein trapping assay: PARP1-GFP at laser micro-irradiation sites
Assay type: cell-based
Settings: wild-type U2OS cells, 100 nM for 1 h, 355 nm laser, 30 minutes, compared to DMSO
From the text: The disclosed method is used to analyze protein trapping induced by compounds. Live-cell imaging allows monitoring of the accumulation of at least one protein, e.g. which is detectably labelled, e.g. fluorophore-tagged, at the induced DNA lesions over time. Time0 (t0) hereby describes the timepoint before induction of DNA damage by irradiation. Thus, the relative enrichment of the at least one protein at DNA lesions within the imaged time frame (from t0 to tEND) can be quantified. This allows to the analysis of the recruitment and retention (protein trapping) kinetics of the at least one protein, e.g. which is detectably labelled, e.g. fluorophore-tagged, at DNA lesions. Suitably, as a first step the accumulation and/or residence time of a protein, e.g. which is detectably labelled, e.g. fluorophore-tagged, is measured in the absence of a test compound (control). The optimal imaging time is hereby determined by the time in which the majority of the protein has released from the damage site, indicated by the decrease of signal, e.g. fluorescent signal, at the DNA lesion (see FIG. 2A). Subsequently, the accumulation and/or residence time of the protein, e.g. which is detectably labelled, e.g. fluorophore-tagged, may be determined in the presence of at least one test compound. […]

## Cn1ncnc1[C@H]1c2n[nH]c(=O)c3cc(F)cc(c23)N[C@@H]1c1ccc(F)cc1 [talazoparib]
  retention of PARP1 at DNA damage sites (PARP1-trapping): enhanced retention; also recorded: most PARP1 retention

“Also recorded” adds a separate entry of the source.
